From patent US8329720B1 (Pisgah Laboratories, Inc., priority 2007, dated 2012)

Assay: Modified dose dumping protocol: ethanol solutions in the absence of the 0.1N HCl media
Settings: 0.1N HCl with 0% EtOH, and 5, 20, 40% EtOH without acid; result in words

COc1ccc2c3c1O[C@H]1C(=O)CC[C@@]4(O)[C@@H](C2)N(C)CC[C@]314.Cl [oxycodone hydrochloride, reference compound]
dissolution profile as a function of ethanol concentration: dissolution profile resembling equilibrium solubility was obtained with each of the four conditions
